TDP1 inh: blocks human tyrosyl-DNA phosphodiesterase 1. recombinant TDP1, AlphaScreen DNA substrate cleavage. 0.28% of 350,000 active. Q9NUW8. AID 485290. Potency, µM (top dose mostly 130 µM), inactives show at the top dose activity change, negative = inhibition, most hits filed as inhibitors; also: potency is read from the fitted curve at half-maximal effect; % is scaled to controls: 0 for no effect and ±100 for the full control effect; nearly all actives have a fitted effect of over 40% in size
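E. coli-derived human Tdp1, 1 nM final. Cpd preinc 15 min RT; substrate 15 nM final, 5 min RT; AS bead mix 10 ug/ml final, 10 min RT. Signal loss = tyrosine-FITC cleavage. No-enzyme wells = max signal.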
TDP1 cell noCPT: qHTS for Inhibitors of human tyrosyl-DNA phosphodiesterase 1 (TDP1): qHTS in cells in absence of CPT. DT40 Tdp1-/- hTDP1 cells, no CPT, ATP luminescence, 48 h. Potency, µM (top dose mostly 46.2 µM), inactives show at the highest dose activity change, negative = growth inhibition, most hits filed as inhibitors. 15% of 420,000 active; also: potency is read from the fitted curve at half-maximal effect; % is scaled to controls: 0 for no effect and ±100 for the full control effect; nearly all actives have a fitted effect of over 55% in size
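Camptothecin absent (DMSO only). Human TDP1-complemented DT40 knockout cells, 400 cells/well, 37 °C for minimum 48 hr; ATP measured via CellTiter-Glo, 30 min dark incubation, luminescence.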
miR-21 reporter: raises the signal of a miR-21 reporter; AID 2288; 340,000 tested, under 10 active; Potency, µM (doses to about 38.3 µM), inactives show at the top dose reporter change, positive = more light; HeLa miR-21 FLuc reporter, luciferase, 48 h; active = well fitted rising curve with a large enough effect; inconclusive = small, poorly fitted or top-dose-only effect; inactive = no such curve, though single readings can be large or run the other way;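 note: % of control where 0% means no effect; miR-21 action dims this reporter so a rising signal means less miR-21 action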
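HeLa cells stably expressing CMV-driven firefly luciferase with a downstream miR-21 binding sequence, endogenously expressing miR-21, were treated with titrations (up to about 40uM final) for 48 hours at 37 degree Celsius. Luciferase luminescence was read after lysis.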
DT40 TDP1 CPT: DT40-hTDP1 cell growth loss with CPT. chicken DT40 Tdp1-/-;hTDP1 cells + 20 nM CPT, ATP luminescence, 48 h. Potency, µM (doses to about 46.2 µM), without a hit: top-dose activity change, negative = growth inhibition, usual class: inhibitors. 12% of 420,000 active. AID 686979; also: potency is read from the fitted curve at half-maximal effect; % is scaled to controls: 0 for no effect and ±100 for the full control effect; nearly all actives have a fitted effect of over 55% in size
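Cell growth measured by CellTiter-Glo luminescence after a minimum 48 h, 37 C compound exposure with 20 nM CPT in Tdp1-knockout DT40 cells stably expressing hTDP1, seeded 400/well; qHTS titration format.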
uPA surface inh: cell surface uPA generation inhibition; 0.31% of 330,000 active; Potency, µM (titrated, usually from 38.3 µM), inactives show at the highest dose activity change, negative = inhibition, actives largely listed as inhibitors; cell surface uPA generation assay, qHTS; AID 540303; active = well fitted inhibition curve with a large enough effect; inconclusive = small, poorly fitted or top-dose-only effect; inactive = no such curve, though single readings can be large or run the other way; tested in mouse RAW 264.7 cells; also: potency is read from the fitted curve at half-maximal effect; % is scaled to controls: 0 for no effect and ±100 for the full control effect; nearly all actives have a fitted effect of over 55% in size
An asterisk follows results filed as active; [ ] = dose if it differs, or a comment. An excerpt weighted towards active compounds, which were near 16% of everything screened. Unless noted, calls follow the shape of the dose curve; as a rule, active = well fitted curve in the direction sought with a large enough effect; inconclusive = small, poorly fitted or top-dose-only effect, or another doubt; inactive = no such curve, though single readings can be large; an effect the other way counts as inactive or inconclusive.

Screening CCOc1ccc(N2C(=O)C(c3ccccc3)=C(c3nc4ccccc4s3)C2NC(C)=O)cc1 (stereo not drawn) returned TDP1 inh 9.8%, TDP1 cell noCPT 16.4µM*, miR-21 reporter -7.0%, DT40 TDP1 CPT inconclusive and uPA surface inh -4.3%.
For COc1cc(N)c(Cl)cc1C(=O)N[C@H]1CCN(CCCOc2ccc(F)cc2)C[C@@H]1OC the results were TDP1 inh 9.5%, TDP1 cell noCPT 26.6µM* and DT40 TDP1 CPT -81.6%.
CN(CCc1ccc(Cl)c(Cl)c1)CC(O)COc1ccc(NS(C)(=O)=O)cc1 (stereo not drawn) was read as TDP1 inh 7.3%, TDP1 cell noCPT 23.1µM* and DT40 TDP1 CPT 18.4µM*.
`CN(CCOc1ccccc1)CC(O)COc1ccccc1` (stereo not drawn) gave TDP1 inh 6.8%[0.0935 µM], TDP1 cell noCPT inconclusive, miR-21 reporter -7.1%, DT40 TDP1 CPT inconclusive and uPA surface inh -0.6%.
`O=C(c1ccc(N2C(=O)CCC2=O)cc1)N1CCOCC1` gave TDP1 inh 2.0%, TDP1 cell noCPT -1.2%, miR-21 reporter 0.3%, DT40 TDP1 CPT -10.7% and uPA surface inh -6.2%.
`Cc1ccc(CNC(=O)c2ccc3c(c2)S(=O)(=O)c2ccccc2C3=O)o1` gave TDP1 cell noCPT 16.4µM*, DT40 TDP1 CPT inconclusive and uPA surface inh -4.7%.
For O=C(NCc1ccc(OC(F)(F)F)cc1)c1ccc2c(c1)S(=O)(=O)c1ccccc1C2=O the results were TDP1 cell noCPT 14.6µM*, DT40 TDP1 CPT 23.1µM* and uPA surface inh -8.2%.
Screening COc1ccc(NC(=O)c2ccc3c(c2)S(=O)(=O)c2ccccc2C3=O)cc1 returned TDP1 cell noCPT -6.1%, DT40 TDP1 CPT -10.5% and uPA surface inh 12.2%.
Screening COc1ccc(NS(=O)(=O)c2ccc(NC(=O)C3CC3)cc2)cc1 returned TDP1 inh 1.7%, TDP1 cell noCPT 9.2µM*, miR-21 reporter 11.3%, DT40 TDP1 CPT 8.2µM* and uPA surface inh -25.0%.
For COc1ccc(N2CCN(C(=O)COC(=O)c3cccc(S(=O)(=O)Nc4cccc(C)c4)c3)CC2)cc1 the results were TDP1 inh 6.4%[0.505 µM], TDP1 cell noCPT inconclusive, DT40 TDP1 CPT 16.4µM* and uPA surface inh -8.1%.
Screening COc1ccc(S(=O)(=O)Nc2ccc(Nc3ccccc3)cc2)cc1 returned TDP1 cell noCPT inconclusive, DT40 TDP1 CPT 20.6µM* and uPA surface inh -1.0%.
For c1ccc(-c2ccc(-c3csnn3)cc2)cc1 the results were TDP1 inh 3.9%, TDP1 cell noCPT -5.8%, miR-21 reporter -39.5%, DT40 TDP1 CPT -0.1% and uPA surface inh -1.0%.
Screening O=S(=O)(Nc1ccccc1)c1ccc(-c2csnn2)cc1 returned TDP1 inh 5.1%, TDP1 cell noCPT 23.1µM*, miR-21 reporter 7.0%, DT40 TDP1 CPT inconclusive and uPA surface inh 0.9%.
CCOc1ccc(NS(=O)(=O)c2ccc(NC(=O)C3CC3)cc2)cc1 was read as TDP1 inh 5.2%, TDP1 cell noCPT -20.8%, miR-21 reporter -2.8%, DT40 TDP1 CPT -18.9% and uPA surface inh 2.5%.
`COc1ccc(S(=O)(=O)Nc2ccccc2)cc1` gave TDP1 cell noCPT -27.1%, DT40 TDP1 CPT 21.2% and uPA surface inh -1.1%.

Of the compounds above, these contain a Cl atom.
For COc1cc(N)c(Cl)cc1C(=O)N[C@H]1CCN(CCCOc2ccc(F)cc2)C[C@@H]1OC the results were TDP1 inh 9.5%, TDP1 cell noCPT 26.6µM* and DT40 TDP1 CPT -81.6%.
CN(CCc1ccc(Cl)c(Cl)c1)CC(O)COc1ccc(NS(C)(=O)=O)cc1 (stereo not drawn) was read as TDP1 inh 7.3%, TDP1 cell noCPT 23.1µM* and DT40 TDP1 CPT 18.4µM*.

(next part)
O=C(OCC(=O)N1CCCCC1)c1cccc(NS(=O)(=O)c2ccccc2)c1 was read as TDP1 inh 0.4%, TDP1 cell noCPT -28.0%, DT40 TDP1 CPT -22.6% and uPA surface inh 3.4%.
`CSc1ccc(CCNC(=O)C2CCCN(S(=O)(=O)N3CCOCC3)C2)cc1` (stereo not drawn) gave TDP1 inh 3.8%, TDP1 cell noCPT -18.0%, miR-21 reporter 4.1%, DT40 TDP1 CPT -0.6% and uPA surface inh 1.6%.
COC(=O)c1cccc(NC(=O)Nc2cc(C(=O)NCc3cccc(F)c3)ccc2N2CCCC2)c1 was read as TDP1 inh -3.8%, TDP1 cell noCPT -14.7%, miR-21 reporter 12.3% and DT40 TDP1 CPT 3.4%.
For CC(=O)Nc1cccc(-c2csc(C(O)c3ccccc3)n2)c1 (stereo not drawn) the results were TDP1 cell noCPT -14.1% and DT40 TDP1 CPT inconclusive.
For CC(=O)C1=C(C)NC(C)=C(C(C)=O)C1c1cccs1 the results were TDP1 inh -12.2%, TDP1 cell noCPT 3.0%, miR-21 reporter -1.2%, DT40 TDP1 CPT -19.1% and uPA surface inh 4.1%.
`COc1ccc(C)c2sc(N(CCCN(C)C)C(=O)CS(=O)(=O)c3ccc(F)cc3)nc12` gave TDP1 cell noCPT -18.9%, DT40 TDP1 CPT -50.2% and uPA surface inh 1.4%.
CCn1c(SCC(=O)Nc2nc3c(s2)CCCC3)nc2c1c(=O)n(C)c(=O)n2C was read as TDP1 inh 4.1% and miR-21 reporter -9.0%.
O=C(CCC1CCCC1)NCCCN1CCOCC1 was read as TDP1 inh 1.1%, TDP1 cell noCPT 0.1%, miR-21 reporter -6.2% and DT40 TDP1 CPT 2.7%.
`CCOc1ccc(NS(=O)(=O)c2ccc(C(=O)N3CCCCCC3)cc2)cc1` gave TDP1 cell noCPT 18.4µM*, DT40 TDP1 CPT 14.6µM* and uPA surface inh -5.3%.
CCOc1ccc(S(=O)(=O)Nc2ccc(C(=O)N3CCC3)cc2)cc1 was read as TDP1 cell noCPT inconclusive, DT40 TDP1 CPT -20.9% and uPA surface inh -4.2%.
Screening Cc1ccc(NS(=O)(=O)c2ccc(C(=O)N3CCCCCC3)cc2)cc1 returned TDP1 inh 1.0%, TDP1 cell noCPT inconclusive, DT40 TDP1 CPT inconclusive and uPA surface inh -3.4%.
For CCOc1ccc(S(=O)(=O)Nc2cccc(Cl)c2)cc1 the results were TDP1 cell noCPT inconclusive, DT40 TDP1 CPT 23.1µM* and uPA surface inh inconclusive.
Screening CCOc1ccc(NS(=O)(=O)c2ccc(C(=O)N3CCCC(C)C3)cc2)cc1 (stereo not drawn) returned TDP1 cell noCPT 16.4µM*, DT40 TDP1 CPT 16.4µM* and uPA surface inh -11.8%.
Cc1ccc(NS(=O)(=O)c2ccc(C(=O)N3CCCCCCC3)cc2)cc1 was read as TDP1 inh 1.1%, TDP1 cell noCPT inconclusive, miR-21 reporter -16.0%, DT40 TDP1 CPT 23.1µM* and uPA surface inh -3.5%.
For CCOc1ccc(S(=O)(=O)Nc2ccc(C(=O)N3CCCC3)cc2)cc1 the results were TDP1 inh 3.5%, TDP1 cell noCPT -3.5%, miR-21 reporter -1.0%, DT40 TDP1 CPT -10.4% and uPA surface inh 0.1%.
For COc1ccc(C(=O)NCCNC(=O)c2ccc(C)nc2)cc1 the results were TDP1 inh 8.1%, TDP1 cell noCPT -0.8%, miR-21 reporter 1.9%, DT40 TDP1 CPT 4.8% and uPA surface inh -1.4%.

Reprinted at random: two entries already listed, in no set order.
Screening Cc1ccc(NS(=O)(=O)c2ccc(C(=O)N3CCCCCC3)cc2)cc1 returned TDP1 inh 1.0%, TDP1 cell noCPT inconclusive, DT40 TDP1 CPT inconclusive and uPA surface inh -3.4%.
For COc1ccc(N2CCN(C(=O)COC(=O)c3cccc(S(=O)(=O)Nc4cccc(C)c4)c3)CC2)cc1 the results were TDP1 inh 6.4%[0.505 µM], TDP1 cell noCPT inconclusive, DT40 TDP1 CPT 16.4µM* and uPA surface inh -8.1%.
